Reference: patent publication US20220324865A1 (Bayer Aktiengesellschaft, priority 2018, published 2022)

The chains behind the UniProt entries cited, without tags or fusion partners.
UniProt P43115, whole entry: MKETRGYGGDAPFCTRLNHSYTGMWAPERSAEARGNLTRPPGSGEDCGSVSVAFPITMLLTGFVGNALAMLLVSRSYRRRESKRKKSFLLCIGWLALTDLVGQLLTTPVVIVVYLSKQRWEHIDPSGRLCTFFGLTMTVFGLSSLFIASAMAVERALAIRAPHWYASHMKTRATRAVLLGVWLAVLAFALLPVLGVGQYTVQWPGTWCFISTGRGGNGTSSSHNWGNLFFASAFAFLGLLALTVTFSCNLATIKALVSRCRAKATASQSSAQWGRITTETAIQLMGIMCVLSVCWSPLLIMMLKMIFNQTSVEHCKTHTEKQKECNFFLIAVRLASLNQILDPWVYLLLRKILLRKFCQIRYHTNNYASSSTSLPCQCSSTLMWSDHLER

Biological target: human EP3 receptor (Homo sapiens, UniProt P43115)
Assay: Cellular in vitro assay for determining EP3 receptor activity (human EP3 cell line, sulprostone-stimulated calcium luminescence)
Conditions: read-out: EP3 CHO mtCLY ANTAG IC50; CHO cells expressing human EP3 and mitochondrial Clytin; antagonist mode, sulprostone at EC50
Summary of the method: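 Antagonist activity was measured as inhibition of the luminescent calcium signal elicited by EC50 sulprostone, following 10 min compound pretreatment. The cell line was recombinant CHO K1 co-expressing human EP3, Gα16 and the photoprotein Clytin, reconstituted with coelenterazine.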

SMILES | IC50 [nM]
Cc1ccc(-c2cn3nc(C(=O)N[C@@H](c4ccc(F)cc4)[C@@H](O)C(F)(F)F)c(C4CC4)c3c(=O)[nH]2)cc1F | 2.85
C[C@H](NC(=O)c1nn2cc(-c3ccc(C(F)(F)F)c(F)c3F)[nH]c(=O)c2c1C1CC1)C1CC1 | 9.33
Cc1cc(-c2cn3nc(C(=O)NC(C#N)CO)c(C4CC4)c3c(=O)[nH]2)ccc1Cl (stereo not drawn) | 3.5
Cc1cc(-c2cn3nc(C(=O)N[C@@H](c4ccc(F)cc4)C(F)(F)CO)c(C4CC4(F)F)c3c(=O)[nH]2)ccc1Cl (stereo partly drawn) | 1.1
COc1ccc(C2(NC(=O)c3nn4cc(-c5ccc(C)c(Cl)c5)[nH]c(=O)c4c3C(F)(F)F)CN(C)C2)cc1 | 2.15
COC[C@@H](C)NC(=O)c1nn2cc(-c3ccc(C)c(F)c3)[nH]c(=O)c2c1C1CC1 | 9.1
COCc1c(C(=O)NCC(O)(C(F)(F)F)C(F)(F)F)nn2cc(-c3ccc4c(c3)OCCO4)[nH]c(=O)c12 | 5.1
O=C(NCC1CCCCC1)c1cc2c(=O)[nH]c(-c3ccc4ccccc4c3)cn2n1 | 1.95
Cc1ccc(-c2cn3nc(C(=O)NCCNCC(F)F)c(C4CC4)c3c(=O)[nH]2)cc1Cl | 1.2
O=C(N[C@H](CCO)c1ccc(F)cc1)c1nn2cc(-c3ccc(Cl)c(F)c3)[nH]c(=O)c2c1C1CC1 | 0.48
O=C(NCCCF)c1cc2c(=O)[nH]c(-c3ccc4cccc(F)c4c3)cn2n1 | 6.25
Cc1ccc(-c2cn3nc(C(=O)N[C@@H](c4ccc(F)cc4)[C@H](O)C(F)(F)F)c(C4CC4)c3c(=O)[nH]2)cc1F | 3.1
Cc1cc(-c2cn3nc(C(=O)N[C@H](CN4CC[C@@H](F)C4)c4ccc(F)cc4)c(C4CC4)c3c(=O)[nH]2)ccc1Cl | 0.99
COc1ccc(C2(NC(=O)c3nn4cc(-c5ccc6c(c5)OCCO6)[nH]c(=O)c4c3C(F)(F)F)CN(C)C2)cc1 | 8.2
CC(C)(O)C(NC(=O)c1nn2cc(-c3ccc4ccccc4c3)[nH]c(=O)c2c1C(F)(F)F)c1ccc(C(F)(F)F)cc1 (stereo not drawn) | 2.75
CC(C)c1c(C(=O)NC2(c3ccc(F)cc3)CN(C)C2)nn2cc(-c3ccc(Cl)cc3)[nH]c(=O)c12 | 4
CC(C)c1c(C(=O)N[C@@H](c2ccc(F)cc2)C(C)(C)O)nn2cc(-c3ccc(Cl)c(F)c3)[nH]c(=O)c12 | 1.63
Cc1cc(-c2cn3nc(C(=O)N[C@@H](c4ccc(F)cc4)C(C)(C)O)c(C(F)(F)F)c3c(=O)[nH]2)ccc1C(F)(F)F | 8.1
Cc1ccc(-c2cn3nc(C(=O)N[C@H](CN4CCOCC4)c4ccc(F)cc4)c(C(F)(F)F)c3c(=O)[nH]2)cc1Cl | 3.65
Cc1ccc(-c2cn3nc(C(=O)N[C@H](c4ccc(F)cc4)C(F)(F)CO)cc3c(=O)[nH]2)cc1C | 6.13
Cc1ccc(-c2cn3nc(C(=O)NC4(c5ccc(F)cc5)CCN(CC(F)(F)F)CC4)cc3c(=O)[nH]2)cc1C | 6.9
COC(=O)[C@H](O)[C@@H](NC(=O)c1cc2c(=O)[nH]c(-c3ccc(C)c(C)c3)cn2n1)c1ccccc1 | 2.5
Cc1cc(-c2cn3nc(C(=O)N[C@H](C)C(C)(C)C)c(C(F)(F)F)c3c(=O)[nH]2)ccc1Cl | 3.37
O=C(NCc1ccccc1)c1cc2c(=O)[nH]c(-c3ccc4c(c3)OCCO4)cn2n1 | 2.7
Cc1ccc(-c2cn3nc(C(=O)N[C@H](c4ccc(F)cc4)C(C)(C)O)c(C4CC4)c3c(=O)[nH]2)cc1Cl | 2.65
Cc1ccc(-c2cn3nc(C(=O)NC4CCN(CC(F)F)C4)c(C4CC4)c3c(=O)[nH]2)cc1C (single isomer, unassigned) | 2.85
Cc1cc(-c2cn3nc(C(=O)N[C@@H](c4ccc(F)cc4)[C@H](O)C(F)(F)F)c(C(F)(F)F)c3c(=O)[nH]2)ccc1Cl | 0.73
Cc1ccc(-c2cn3nc(C(=O)N[C@@H](c4ccc(F)cc4)[C@H](O)C(F)(F)F)cc3c(=O)[nH]2)cc1F | 1.15

Second part, the compound after the results:

IC50 [nM] | SMILES
36 | Cc1ccc(-c2cn3nc(C(=O)NC(c4ccc(F)cc4)C4(O)CC4)c(C(F)(F)F)c3c(=O)[nH]2)cc1F (single isomer, unassigned) [6-151]
1.65 | Cc1ccc(-c2cn3nc(C(=O)NC4CCN(CC(F)(F)F)C4)c(C4CC4)c3c(=O)[nH]2)cc1C (single isomer, unassigned) [6-461]
2.55 | CN(C)CC(NC(=O)c1nn2cc(-c3ccc4ccccc4c3)[nH]c(=O)c2c1C(F)(F)F)c1ccc(F)cc1 (single isomer, unassigned) [6-507]
20 | Cc1ccc(-c2cn3nc(C(=O)NCC(O)C(F)(F)F)c(C(F)(F)F)c3c(=O)[nH]2)cc1F (single isomer, unassigned) [6-139]
1.35 | O=C(NC(CN1CCOCC1)c1ccc(F)cc1)c1nn2cc(-c3ccc4ccccc4c3)[nH]c(=O)c2c1C(F)(F)F (single isomer, unassigned) [6-504]
1 | Cc1ccc(-c2cn3nc(C(=O)NC(CO)c4ccc(F)cc4)c(C4CC4)c3c(=O)[nH]2)cc1F (single isomer, unassigned) [6-374]
1.5 | O=C(NC(CO)C(F)(F)F)c1nn2cc(-c3ccc(Cl)c(Cl)c3)[nH]c(=O)c2c1C1CC1 (single isomer, unassigned) [6-419]
4.85 | Cc1ccc(-c2cn3nc(C(=O)NC(c4ccc(F)cc4)C4(O)CC4)c(C(F)(F)F)c3c(=O)[nH]2)cc1Cl (single isomer, unassigned) [6-175]
8.15 | Cc1cc(-c2cn3nc(C(=O)NCC(O)C(F)(F)F)c(C(F)(F)F)c3c(=O)[nH]2)ccc1Cl (single isomer, unassigned) [6-204]
9.3 | Cc1cc(-c2cn3nc(C(=O)NC(C)CN4CCOCC4)c(C4CC4)c3c(=O)[nH]2)ccc1Cl (single isomer, unassigned) [6-328]
8.35 | Cc1ccc(-c2cn3nc(C(=O)NCC(N)C(F)(F)F)c(C(F)(F)F)c3c(=O)[nH]2)cc1Cl (single isomer, unassigned) [6-166]
2.18 | O=C(NC(CO)C(F)(F)F)c1nn2cc(-c3ccc(Cl)c(Cl)c3)[nH]c(=O)c2c1C1CC1 (single isomer, unassigned) [6-418]
1.2 | Cc1ccc(-c2cn3nc(C(=O)NC4CCN(CC(F)(F)F)C4)c(C4CC4)c3c(=O)[nH]2)cc1C (single isomer, unassigned) [6-462]

Same assay, conditions: read-out: EP3 CHO mtCLY ANTAG IC50; CHO cells expressing human EP3 and mitochondrial Clytin; antagonist mode, sulprostone at EC50; tested form: formate

IC50 [nM] | SMILES
4.37 | CCN1CCC(NC(=O)c2nn3cc(-c4ccc5ccccc5c4)[nH]c(=O)c3c2C(F)(F)F)(C(F)(F)F)C1 (stereo not drawn)
